Measured values from US7892350B2, “Sacrificial agents for fly ash concrete” (Boral Material Technologies Inc., priority 2003, dated 2011).

Assay: Second sacrificial agent testing protocol: paste air measurements with DDBS (0.0125 wt %) and rating; for SA Rating (0-4): key: 0: Fail; 1: Poor; 2: Good; 3: Preferred; 4: Most preferred

OCCN(CCO)CCO
B1 + 0.0125% DDBS + 0.05% SA (air entrainment) (B1 FA/cement paste, 0.0125 wt % DDBS, 0.05 wt % SA): 2.5
B1 + 0.0125% DDBS + 0.1% SA (air entrainment) (B1 FA/cement paste, 0.0125 wt % DDBS, 0.10 wt % SA): 3.1
PCA + 0.1% SA (level of air entrainment by the candidate sacrificial agent) (Portland cement paste (PCA), 0.1 wt % SA, no DDBS): 0.6
SA Rating (0-4) (sacrificial agent overall rating index): 0
